Test results reported in ChEMBL document CHEMBL1121573, “2-(Aminomethyl)phenols, a new class of saluretic agents. 1. Effects of nuclear substitution” (J Med Chem, 1980).

System: Rattus norvegicus
Assay: Oral diuretic activity was evaluated by measuring Na+ excretion in Rat at 27 mg/kg […] (0-5 hr)
Format: ADME, organism-based, Urine
Parameters: dose 27 mg/kg
Conditions: in vivo
How it was run: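 Female Charles-River rats (150–170 g) were kept overnight on a sugar diet with water ad libitum. Compound was dissolved in DMF, then diluted with water containing Tween 80 (3 drops/100 mL) to a final 4% DMF, and given po in 5.0 mL. Rats were housed three per metabolism cage. Urine from 0–5 h was analysed for Na+, K+ and Cl−, with concurrent placebo controls. Values are mequiv × 100 per cage, geometric mean of three cages per dose.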

- Diuretic activity: 1.25
SMILES: NS(=O)(=O)c1cc(C(=O)O)c(NCc2ccco2)cc1Cl [FUROSEMIDE]
